Measurements taken from patent publication US20100273696A1, “Composition and method for the prevention and removal of unwanted paint on a surface” (priority 2009, published 2010).

Assay: Solubility in water of possible ingredients
Assay type: physicochemical
Conditions: result in words

Solubility in H2O: complete
Substance: PEG-8 Oleate
